{"sequences": {"note": "Chains of the proteins cited; added tags and fusions are not shown.", "UniProt P08172, whole entry": "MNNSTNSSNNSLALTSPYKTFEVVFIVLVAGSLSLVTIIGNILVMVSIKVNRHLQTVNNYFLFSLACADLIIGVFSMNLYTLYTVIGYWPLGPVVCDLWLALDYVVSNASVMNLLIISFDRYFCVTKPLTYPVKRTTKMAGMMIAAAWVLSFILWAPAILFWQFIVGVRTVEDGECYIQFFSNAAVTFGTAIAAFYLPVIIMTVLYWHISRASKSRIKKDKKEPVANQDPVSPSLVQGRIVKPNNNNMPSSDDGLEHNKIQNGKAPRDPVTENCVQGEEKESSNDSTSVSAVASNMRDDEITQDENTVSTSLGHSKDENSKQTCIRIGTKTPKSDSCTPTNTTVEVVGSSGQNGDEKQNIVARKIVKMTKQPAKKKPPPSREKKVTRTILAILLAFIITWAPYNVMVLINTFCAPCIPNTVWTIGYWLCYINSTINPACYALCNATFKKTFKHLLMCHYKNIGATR"}, "source": "patent EP0821954A1", "about": "“Method for treating mental retardation” (ELI LILLY AND COMPANY, priority 1996, dated 1998)", "biological_target": "m2 receptors in brain stem (Homo sapiens, UniProt P08172)", "assay": "3H-quinuclidinyl benzilate binding to m2 receptors in brain stem", "details": "inhibition of binding of 3H-quinuclidinyl benzilate", "note": "pKi: −log10 of the molar value."}
{"molecule": "CCCCCCOc1nsnc1C1=CCCN(C)C1", "note": "[Xanomeline, 3-(4-hexyloxy-1,2,5-thiadiazol-3-yl)-1,2,5,6-tetrahydro-1-methylpyridine]", "values": [{"measurement": "pKi", "value": 7.62}]}
